The values below come from patent US10167299B2, “1-(3-aminopropyl) substituted cyclic amine compounds, preparation method therefor, and pharmaceutical compositions and uses thereof” (SHANGHAI INSTITUTE OF MATERIA MEDICA, CHINESE ACADEMY OF …, priority 2013, dated 2019).

By UniProt entry, the sequences of proteins in these tests, tags left out.
UniProt P51681, whole entry: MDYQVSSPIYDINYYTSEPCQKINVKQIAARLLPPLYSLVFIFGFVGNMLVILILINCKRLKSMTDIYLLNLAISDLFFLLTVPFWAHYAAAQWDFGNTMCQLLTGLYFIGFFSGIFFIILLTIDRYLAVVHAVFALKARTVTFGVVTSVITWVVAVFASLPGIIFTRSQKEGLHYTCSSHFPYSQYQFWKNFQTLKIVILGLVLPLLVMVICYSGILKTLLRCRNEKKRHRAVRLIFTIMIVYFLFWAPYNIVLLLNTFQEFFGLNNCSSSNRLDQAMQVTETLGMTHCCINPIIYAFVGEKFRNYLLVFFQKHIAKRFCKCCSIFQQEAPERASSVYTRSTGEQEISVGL

The target in this experiment is CCR5 (Homo sapiens (Human), UniProt P51681). The experiment is described as follows: Calcium flux inhibition experiment. The experiment is classed as cell-based. Particulars: HEK293/CCR5-Gα16 cell line. An excerpt:
Experiment apparatus: FlexStation II
Experiment materials: HEK293/CCR5-Gα16 cell line, Fluo-4calcium dye (fluorescent-4 calcium ion dye) and FlexStation instrument.
Experiment theory: Activation of the receptor can cause the activation of Gα16 protein, thereby activating phospholipase C (PLC) to generate IP3 and DAG by establishing CCR5 and Ga16 co-transfected cell line. IP3 can bind to IP3 receptors on the endoplasmic reticulum and mitochondria in a cell, which can cause the release of intracellular calcium. Thus, determination of changes in intracellular calcium can be used as a method to detect CCR5 activation state. Fluo-4/AM is a fluorescent probe indicator for calcium used to measure calcium ion. As a non-polar lipid-soluble compound, after it enters into cells, AM group is dissociated to release Fluo-4 under the effect of cell lipolysis enzyme. […] Ultimately, the level of activated Ga protein can be reflected by measuring the excited fluorescence intensity. […]
3. The medicament to be determined was diluted with calcium buffer to eight concentration gradients, which is 1×10^−4 M, 1×10^−5 M, 1×10^−6 M, 1×10^−7 M, 1×10^−8 M, 1×10^−9 M, 1×10^−10 M, and 1×10^−11 M, respectively, and homogeneously mixed. […]
5. […] 25 μl of calcium buffer containing the medicament to be determined was added automatically from the 15th second.

For the compound `Cc1nnc(C(C)C)n1C1CC2CCC(C1)N2CC[C@H](NC(=O)CC#N)c1cccs1` (stereo partly drawn) [Compound 164, N-[(1S)-3-[exo-3-(3-isopropyl-5-methyl-4H-1,2,4-triazol-4-yl)-8-azabicyclo[3.2.1]octane-8-yl]-1-(thiophen-2-yl)propyl]-2-cyanoacetamide], the IC50 is 7.38 nM.
